The assay deals with primary acute myeloid leukemia (AML) cells obtained from patients. The assay can be described thus: Kinase inhibitor library screening with and without NSC130362, primary AML cells. Format: cell-based, Human.

On to `CNC(=O)c1cc(Oc2ccc(NC(=O)Nc3ccc(Cl)c(C(F)(F)F)c3)cc2)ccn1` [Sorafenib], for which the “EC50 decrease, fold (Screen N 3)” value is given as 2.0 fold.
